The structures appear in SMILES notation. Where two headings read alike, the source gives them in different places.

For 2 compounds, Ki results are on record in paper PMC4657098, “A Review of the Updated Pharmacophore for the Alpha 5 GABA(A) Benzodiazepine Receptor Model” (International Journal of Medicinal Chemistry, 2015).

For one experiment, the target named is α5β3γ2 GABAA/BzR (Homo sapiens, UniProt P18507+P31644). The experiment in a line: Competition binding to HEK cell membranes, α5β3γ2.
For a further experiment, the target named is α3β3γ2 GABAA/BzR (Homo sapiens, UniProt P18507+P34903). The experiment in a line: Competition binding to HEK cell membranes, α3β3γ2.
A further experiment addresses α1β3γ2 GABAA/BzR (Homo sapiens, UniProt P14867+P18507). The experiment in a line: Competition binding to HEK cell membranes, α1β3γ2. Conditions: Ki α1.
The target in a further experiment is α2β3γ2 GABAA/BzR (Homo sapiens, UniProt P18507+P47869). The experiment in a line: Competition binding to HEK cell membranes, α2β3γ2.
Another experiment has as its target α6β3γ2 GABAA/BzR (Homo sapiens, UniProt P18507+Q16445). The experiment in a line: Competition binding to HEK cell membranes, α6β3γ2. Conditions: read-out: Ki α6.

What is called Ki is a measure of affinity in units of concentration, obtained from inhibition or displacement. As for `C#Cc1ccc2c(c1)C(c1ccccc1F)=N[C@@H](C)c1c(C(=O)OCC)ncn1-2`, the Ki on α5β3γ2 GABAA/BzR (Ki α5) amounted to 16 nM; at α3β3γ2 GABAA/BzR (Ki α3) it was 1240 nM; on α1β3γ2 GABAA/BzR it was 350 nM; on α2β3γ2 GABAA/BzR (Ki α2), 141 nM.

As to `CCOC(=O)c1cc2c(cn1)[nH]c1ccccc12` [BCCE, reference compound], the Ki at α5β3γ2 GABAA/BzR (read-out: Ki α5) came to 26.8 nM; at α3β3γ2 GABAA/BzR (read-out: Ki α3), 5.7 nM; at α6β3γ2 GABAA/BzR, 2700 nM; at α2β3γ2 GABAA/BzR (read-out: Ki α2), 4.9 nM.
